The source of these data is ChEMBL document CHEMBL2218924, “A broad activity screen in support of a chemogenomic map for kinase signalling research and drug discovery” (Biochem J, 2013).

Amino acid sequences for entries named in this document (tags omitted). A change or cut given only in a name is not applied to a line headed by its entry.
UniProt Q15375: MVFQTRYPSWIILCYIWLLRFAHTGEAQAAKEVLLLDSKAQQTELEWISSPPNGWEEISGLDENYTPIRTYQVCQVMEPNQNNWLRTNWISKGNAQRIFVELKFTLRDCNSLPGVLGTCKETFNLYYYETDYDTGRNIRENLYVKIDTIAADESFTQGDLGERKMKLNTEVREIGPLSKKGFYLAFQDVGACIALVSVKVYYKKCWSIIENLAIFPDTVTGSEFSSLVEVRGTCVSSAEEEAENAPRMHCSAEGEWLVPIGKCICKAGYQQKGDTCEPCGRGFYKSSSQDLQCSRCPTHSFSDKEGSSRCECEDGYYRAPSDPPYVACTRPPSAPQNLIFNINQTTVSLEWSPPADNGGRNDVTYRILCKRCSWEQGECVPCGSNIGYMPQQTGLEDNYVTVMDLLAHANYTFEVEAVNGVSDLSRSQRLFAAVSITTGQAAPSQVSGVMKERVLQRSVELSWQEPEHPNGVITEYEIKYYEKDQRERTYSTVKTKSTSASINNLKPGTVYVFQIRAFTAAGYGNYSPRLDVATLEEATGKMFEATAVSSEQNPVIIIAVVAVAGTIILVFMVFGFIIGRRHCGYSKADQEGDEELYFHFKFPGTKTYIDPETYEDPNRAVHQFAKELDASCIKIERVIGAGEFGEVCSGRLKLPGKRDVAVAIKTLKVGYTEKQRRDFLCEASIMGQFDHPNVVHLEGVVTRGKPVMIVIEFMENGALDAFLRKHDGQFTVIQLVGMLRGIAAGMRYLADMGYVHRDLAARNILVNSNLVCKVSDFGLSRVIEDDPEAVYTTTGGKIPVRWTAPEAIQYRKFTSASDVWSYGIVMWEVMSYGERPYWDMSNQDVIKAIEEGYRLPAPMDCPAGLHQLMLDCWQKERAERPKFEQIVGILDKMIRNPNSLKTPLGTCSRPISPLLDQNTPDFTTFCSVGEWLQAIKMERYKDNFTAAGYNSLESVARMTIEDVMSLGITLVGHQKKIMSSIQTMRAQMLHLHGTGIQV
UniProt P22607, whole entry, looked up: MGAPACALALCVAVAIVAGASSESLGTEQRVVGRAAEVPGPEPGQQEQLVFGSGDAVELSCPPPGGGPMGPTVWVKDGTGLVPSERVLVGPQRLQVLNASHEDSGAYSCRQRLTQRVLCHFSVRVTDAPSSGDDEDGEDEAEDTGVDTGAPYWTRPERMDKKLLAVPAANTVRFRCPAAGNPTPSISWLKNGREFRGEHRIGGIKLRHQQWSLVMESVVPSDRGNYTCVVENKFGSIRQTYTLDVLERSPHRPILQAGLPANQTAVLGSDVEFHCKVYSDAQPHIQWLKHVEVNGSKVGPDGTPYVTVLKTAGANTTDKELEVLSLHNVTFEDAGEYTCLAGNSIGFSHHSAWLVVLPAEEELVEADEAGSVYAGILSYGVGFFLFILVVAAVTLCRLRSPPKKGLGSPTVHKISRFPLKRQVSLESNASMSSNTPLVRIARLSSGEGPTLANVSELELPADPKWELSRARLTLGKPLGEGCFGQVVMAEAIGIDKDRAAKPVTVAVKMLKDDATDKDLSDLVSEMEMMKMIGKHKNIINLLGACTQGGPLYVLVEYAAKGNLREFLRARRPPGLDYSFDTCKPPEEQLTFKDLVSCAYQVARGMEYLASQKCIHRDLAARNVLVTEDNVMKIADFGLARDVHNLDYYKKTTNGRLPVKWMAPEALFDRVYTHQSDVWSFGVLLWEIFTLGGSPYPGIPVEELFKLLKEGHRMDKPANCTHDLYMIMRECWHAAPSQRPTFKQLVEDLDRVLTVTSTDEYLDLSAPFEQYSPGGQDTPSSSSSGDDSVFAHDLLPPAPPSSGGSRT
UniProt P07332: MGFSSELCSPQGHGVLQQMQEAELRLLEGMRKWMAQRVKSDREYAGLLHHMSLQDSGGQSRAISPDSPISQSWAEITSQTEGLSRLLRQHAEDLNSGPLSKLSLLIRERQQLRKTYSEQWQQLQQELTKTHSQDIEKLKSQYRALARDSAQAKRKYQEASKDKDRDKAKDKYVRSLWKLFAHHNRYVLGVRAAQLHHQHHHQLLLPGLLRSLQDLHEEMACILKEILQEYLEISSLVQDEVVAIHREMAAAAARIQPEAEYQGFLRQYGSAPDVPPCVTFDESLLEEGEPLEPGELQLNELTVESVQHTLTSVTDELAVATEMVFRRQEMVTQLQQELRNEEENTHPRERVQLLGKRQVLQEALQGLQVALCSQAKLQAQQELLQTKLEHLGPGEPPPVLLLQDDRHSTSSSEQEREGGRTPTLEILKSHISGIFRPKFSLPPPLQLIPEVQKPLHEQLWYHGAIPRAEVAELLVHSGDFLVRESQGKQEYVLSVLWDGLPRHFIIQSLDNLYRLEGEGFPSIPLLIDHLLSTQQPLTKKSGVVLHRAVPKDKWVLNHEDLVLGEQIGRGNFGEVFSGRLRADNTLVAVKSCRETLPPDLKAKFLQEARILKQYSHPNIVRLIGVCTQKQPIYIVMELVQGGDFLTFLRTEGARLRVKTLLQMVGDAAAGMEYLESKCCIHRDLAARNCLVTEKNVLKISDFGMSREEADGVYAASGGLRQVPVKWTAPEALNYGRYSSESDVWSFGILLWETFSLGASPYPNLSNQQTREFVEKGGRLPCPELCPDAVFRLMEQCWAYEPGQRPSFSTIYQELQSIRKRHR
UniProt P06241, whole entry, looked up: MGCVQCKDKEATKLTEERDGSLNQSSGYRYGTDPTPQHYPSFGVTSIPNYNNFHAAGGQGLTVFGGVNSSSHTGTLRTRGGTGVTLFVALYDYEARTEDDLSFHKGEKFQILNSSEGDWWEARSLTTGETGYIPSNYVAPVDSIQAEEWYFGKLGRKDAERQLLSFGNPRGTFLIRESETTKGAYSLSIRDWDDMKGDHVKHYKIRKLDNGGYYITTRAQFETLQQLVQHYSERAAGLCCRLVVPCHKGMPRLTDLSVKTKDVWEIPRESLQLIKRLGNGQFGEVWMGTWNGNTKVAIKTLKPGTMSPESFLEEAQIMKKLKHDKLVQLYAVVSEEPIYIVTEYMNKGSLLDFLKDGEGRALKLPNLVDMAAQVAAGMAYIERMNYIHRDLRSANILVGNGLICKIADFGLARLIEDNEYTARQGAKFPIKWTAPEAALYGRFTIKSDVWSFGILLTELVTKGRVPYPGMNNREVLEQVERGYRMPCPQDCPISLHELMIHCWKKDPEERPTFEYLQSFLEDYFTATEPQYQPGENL
UniProt P43250, whole entry, looked up: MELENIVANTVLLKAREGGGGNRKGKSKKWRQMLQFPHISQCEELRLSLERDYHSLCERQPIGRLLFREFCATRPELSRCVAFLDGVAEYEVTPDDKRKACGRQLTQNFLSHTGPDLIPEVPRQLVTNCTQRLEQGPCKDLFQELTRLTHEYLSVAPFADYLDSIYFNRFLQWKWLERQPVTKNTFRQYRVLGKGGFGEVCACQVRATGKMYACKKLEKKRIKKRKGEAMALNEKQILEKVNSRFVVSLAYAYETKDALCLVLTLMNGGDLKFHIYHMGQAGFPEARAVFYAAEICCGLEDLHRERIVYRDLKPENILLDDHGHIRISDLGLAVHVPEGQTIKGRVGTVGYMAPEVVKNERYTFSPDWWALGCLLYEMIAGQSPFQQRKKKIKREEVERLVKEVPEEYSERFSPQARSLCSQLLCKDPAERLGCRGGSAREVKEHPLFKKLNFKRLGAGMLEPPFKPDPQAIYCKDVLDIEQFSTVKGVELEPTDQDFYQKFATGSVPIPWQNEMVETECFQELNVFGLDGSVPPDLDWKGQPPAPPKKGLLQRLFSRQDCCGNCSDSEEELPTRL
UniProt Q86Z02: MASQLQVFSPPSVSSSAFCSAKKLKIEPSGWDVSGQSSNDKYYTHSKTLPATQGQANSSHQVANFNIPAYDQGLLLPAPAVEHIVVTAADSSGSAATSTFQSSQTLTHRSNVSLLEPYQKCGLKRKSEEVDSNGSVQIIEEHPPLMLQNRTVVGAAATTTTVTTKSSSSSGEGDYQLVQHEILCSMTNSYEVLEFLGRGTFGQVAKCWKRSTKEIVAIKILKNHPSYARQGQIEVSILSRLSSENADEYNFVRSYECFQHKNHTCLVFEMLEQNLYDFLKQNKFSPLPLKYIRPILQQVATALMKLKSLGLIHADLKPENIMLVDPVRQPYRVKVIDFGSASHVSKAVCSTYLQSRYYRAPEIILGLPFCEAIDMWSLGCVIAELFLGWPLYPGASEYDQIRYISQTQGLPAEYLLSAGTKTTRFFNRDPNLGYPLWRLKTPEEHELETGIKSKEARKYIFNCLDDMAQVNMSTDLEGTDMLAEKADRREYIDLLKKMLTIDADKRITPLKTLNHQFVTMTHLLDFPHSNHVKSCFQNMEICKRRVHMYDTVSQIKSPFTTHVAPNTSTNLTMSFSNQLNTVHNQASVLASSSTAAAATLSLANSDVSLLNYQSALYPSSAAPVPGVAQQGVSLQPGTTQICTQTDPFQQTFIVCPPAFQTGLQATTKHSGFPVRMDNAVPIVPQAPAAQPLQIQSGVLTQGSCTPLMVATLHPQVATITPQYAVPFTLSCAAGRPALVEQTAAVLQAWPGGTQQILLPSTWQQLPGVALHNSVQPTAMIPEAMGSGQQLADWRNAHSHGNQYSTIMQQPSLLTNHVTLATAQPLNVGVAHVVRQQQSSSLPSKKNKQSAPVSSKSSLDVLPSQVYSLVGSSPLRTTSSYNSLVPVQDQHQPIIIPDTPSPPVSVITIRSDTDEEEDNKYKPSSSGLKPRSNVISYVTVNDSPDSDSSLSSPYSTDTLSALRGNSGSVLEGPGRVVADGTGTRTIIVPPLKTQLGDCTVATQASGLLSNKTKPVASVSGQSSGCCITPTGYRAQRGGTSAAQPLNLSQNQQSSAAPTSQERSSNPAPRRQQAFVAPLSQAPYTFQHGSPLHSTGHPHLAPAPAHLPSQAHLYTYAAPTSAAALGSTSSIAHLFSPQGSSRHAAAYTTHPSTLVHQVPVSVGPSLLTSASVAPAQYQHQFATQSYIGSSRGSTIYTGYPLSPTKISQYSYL
UniProt Q8TF76: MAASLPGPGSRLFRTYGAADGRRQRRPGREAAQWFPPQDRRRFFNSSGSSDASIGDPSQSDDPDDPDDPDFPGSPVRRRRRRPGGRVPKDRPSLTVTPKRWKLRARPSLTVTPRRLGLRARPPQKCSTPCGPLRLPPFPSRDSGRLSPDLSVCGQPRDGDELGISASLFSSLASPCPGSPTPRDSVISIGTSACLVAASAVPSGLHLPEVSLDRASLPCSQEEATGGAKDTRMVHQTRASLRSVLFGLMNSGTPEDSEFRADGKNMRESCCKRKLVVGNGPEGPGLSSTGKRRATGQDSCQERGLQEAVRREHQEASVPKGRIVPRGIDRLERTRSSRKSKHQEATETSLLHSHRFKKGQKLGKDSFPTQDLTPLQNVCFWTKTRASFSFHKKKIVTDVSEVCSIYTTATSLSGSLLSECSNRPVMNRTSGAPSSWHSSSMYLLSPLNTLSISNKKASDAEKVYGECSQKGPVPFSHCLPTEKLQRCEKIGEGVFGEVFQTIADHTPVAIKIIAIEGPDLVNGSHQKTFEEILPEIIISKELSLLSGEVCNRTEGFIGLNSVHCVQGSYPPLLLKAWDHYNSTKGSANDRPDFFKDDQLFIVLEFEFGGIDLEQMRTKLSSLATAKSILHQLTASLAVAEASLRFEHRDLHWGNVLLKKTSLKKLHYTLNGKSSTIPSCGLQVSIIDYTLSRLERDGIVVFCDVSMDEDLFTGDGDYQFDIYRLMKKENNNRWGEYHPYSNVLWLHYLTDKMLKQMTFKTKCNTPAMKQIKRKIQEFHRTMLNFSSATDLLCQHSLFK
UniProt P08631: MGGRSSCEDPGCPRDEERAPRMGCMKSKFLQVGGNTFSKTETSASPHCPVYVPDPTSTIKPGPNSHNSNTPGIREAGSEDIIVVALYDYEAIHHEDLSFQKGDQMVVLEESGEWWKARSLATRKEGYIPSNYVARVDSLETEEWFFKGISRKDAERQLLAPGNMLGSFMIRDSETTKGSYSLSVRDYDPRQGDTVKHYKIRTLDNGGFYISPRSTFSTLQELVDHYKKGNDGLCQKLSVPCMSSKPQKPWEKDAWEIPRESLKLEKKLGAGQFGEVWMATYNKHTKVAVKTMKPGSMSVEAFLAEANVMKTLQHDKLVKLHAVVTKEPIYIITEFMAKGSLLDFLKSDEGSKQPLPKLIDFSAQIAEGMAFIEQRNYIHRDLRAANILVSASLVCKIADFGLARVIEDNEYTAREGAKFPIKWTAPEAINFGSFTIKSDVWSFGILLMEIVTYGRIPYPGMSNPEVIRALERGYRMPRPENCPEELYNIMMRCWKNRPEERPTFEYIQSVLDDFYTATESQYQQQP

Molecules are shown by their SMILES. For some of these results: The strong results were mostly taken out for another list; the other results follow. This is a selection; strong and weak results do not stand in their true shares.

Test [1] concerns the target Ephrin type-A receptor 7 (Homo sapiens) (UniProt Q15375). The following applies: at 10 µM.
For test [2], the target named is T1, Ephrin type-A receptor 8 (Homo sapiens) (UniProt P29322).
T1 sequence (whole entry): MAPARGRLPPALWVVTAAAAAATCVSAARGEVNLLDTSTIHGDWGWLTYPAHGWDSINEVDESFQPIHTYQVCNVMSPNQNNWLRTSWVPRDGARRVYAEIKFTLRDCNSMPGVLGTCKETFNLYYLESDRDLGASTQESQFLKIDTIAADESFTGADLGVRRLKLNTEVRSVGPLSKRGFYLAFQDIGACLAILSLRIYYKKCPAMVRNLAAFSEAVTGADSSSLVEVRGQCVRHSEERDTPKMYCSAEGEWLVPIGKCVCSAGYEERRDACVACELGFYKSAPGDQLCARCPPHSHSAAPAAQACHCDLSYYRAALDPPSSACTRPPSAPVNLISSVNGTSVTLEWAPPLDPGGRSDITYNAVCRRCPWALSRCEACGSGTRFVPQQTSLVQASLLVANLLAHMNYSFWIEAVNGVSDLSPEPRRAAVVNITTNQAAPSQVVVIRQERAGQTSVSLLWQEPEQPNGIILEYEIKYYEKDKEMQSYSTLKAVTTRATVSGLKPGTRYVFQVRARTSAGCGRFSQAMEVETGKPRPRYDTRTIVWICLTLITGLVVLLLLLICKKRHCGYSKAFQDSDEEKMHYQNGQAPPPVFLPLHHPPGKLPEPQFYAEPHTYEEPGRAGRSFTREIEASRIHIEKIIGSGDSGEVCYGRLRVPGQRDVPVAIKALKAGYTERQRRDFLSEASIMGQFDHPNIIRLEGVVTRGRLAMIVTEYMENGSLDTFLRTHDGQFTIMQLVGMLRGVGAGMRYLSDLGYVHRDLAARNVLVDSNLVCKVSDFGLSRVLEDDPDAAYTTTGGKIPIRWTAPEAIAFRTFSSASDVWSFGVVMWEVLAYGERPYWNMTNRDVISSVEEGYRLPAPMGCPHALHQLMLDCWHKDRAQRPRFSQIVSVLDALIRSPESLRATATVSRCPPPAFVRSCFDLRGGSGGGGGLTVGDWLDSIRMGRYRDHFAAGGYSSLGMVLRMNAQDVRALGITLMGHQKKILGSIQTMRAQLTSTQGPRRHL
The following applies: at 1 µM.

For test [3], the target named is T2, Ephrin type-B receptor 1 (Homo sapiens) (UniProt P54762).
T2 sequence (whole entry): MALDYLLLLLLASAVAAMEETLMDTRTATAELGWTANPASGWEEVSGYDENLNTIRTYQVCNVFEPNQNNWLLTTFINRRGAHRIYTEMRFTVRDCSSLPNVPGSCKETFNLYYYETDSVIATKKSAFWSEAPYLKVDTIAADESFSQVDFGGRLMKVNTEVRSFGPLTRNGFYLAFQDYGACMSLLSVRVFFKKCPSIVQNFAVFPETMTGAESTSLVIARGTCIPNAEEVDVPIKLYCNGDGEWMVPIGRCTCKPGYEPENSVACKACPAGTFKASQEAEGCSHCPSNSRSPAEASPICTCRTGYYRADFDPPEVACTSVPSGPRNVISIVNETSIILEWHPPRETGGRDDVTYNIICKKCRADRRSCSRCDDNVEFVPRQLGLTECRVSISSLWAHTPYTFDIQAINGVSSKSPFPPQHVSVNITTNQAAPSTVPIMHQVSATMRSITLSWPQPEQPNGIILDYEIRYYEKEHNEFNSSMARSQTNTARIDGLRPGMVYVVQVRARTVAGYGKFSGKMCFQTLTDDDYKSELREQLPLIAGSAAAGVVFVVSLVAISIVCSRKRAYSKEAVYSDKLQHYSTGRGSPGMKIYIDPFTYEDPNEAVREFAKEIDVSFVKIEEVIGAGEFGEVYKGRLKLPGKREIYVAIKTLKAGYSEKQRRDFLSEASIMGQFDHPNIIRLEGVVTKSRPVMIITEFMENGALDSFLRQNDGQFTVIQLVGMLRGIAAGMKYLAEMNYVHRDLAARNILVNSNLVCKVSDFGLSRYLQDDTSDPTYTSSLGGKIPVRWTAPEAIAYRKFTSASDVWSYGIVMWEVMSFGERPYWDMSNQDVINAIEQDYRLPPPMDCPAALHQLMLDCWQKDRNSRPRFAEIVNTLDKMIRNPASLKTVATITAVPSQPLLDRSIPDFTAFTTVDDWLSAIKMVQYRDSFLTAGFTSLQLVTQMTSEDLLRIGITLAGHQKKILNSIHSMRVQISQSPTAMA
The following applies: at 1 µM.

Test [4] addresses T2, Ephrin type-B receptor 1 (Homo sapiens). The following applies: at 10 µM.
Test [5] deals with Fibroblast growth factor receptor 3 (Homo sapiens) (UniProt P22607). The following applies: at 1 µM.
Test [6] concerns the target Tyrosine-protein kinase Fes/Fps (Homo sapiens) (UniProt P07332). The following applies: at 1 µM.
The target in test [7] is Tyrosine-protein kinase Fgr (Homo sapiens) (UniProt P09769). The following applies: at 1 µM.
For test [8], the target named is Tyrosine-protein kinase Fyn (Homo sapiens) (UniProt P06241). The following applies: at 1 µM.
Test [9] deals with G protein-coupled receptor kinase 6 (Homo sapiens) (UniProt P43250). The following applies: at 1 µM.
Test [10] has as its target Homeodomain-interacting protein kinase 1 (Homo sapiens) (UniProt Q86Z02). The following applies: at 1 µM.
For test [11] the target is unchanged. The following applies: at 10 µM.
Test [12] concerns the target Serine/threonine-protein kinase haspin (Homo sapiens) (UniProt Q8TF76). The following applies: at 1 µM.
Test [13] addresses Tyrosine-protein kinase HCK (Homo sapiens) (UniProt P08631). The following applies: at 1 µM.

By residual activity is commonly meant what remains of the control signal, in per cent. Read a high residual activity as much activity left. For the compound `O=C1NC(=O)C(c2cn(CCCn3ccnc3)c3ccccc23)=C1Nc1ccccc1`, the residual activity is 88% in [1]; 91% in [2]; 94% in test [3]; 90% in test [4]; 98% in test [5]; 91% in [6]. Also, the residual activity was determined as 98% in test [7]; 90% in test [8]; 85% in test [9]; 98% in [10]; 97% in test [11]; 84% in test [12]. The residual activity in test [13] is 95%.
